# According to PubChem BioAssay AID2451 (National Center for Advancing Translational Sciences (NCATS), 2010):
# By UniProt entry, the sequences of proteins in these tests, tags left out. Where a name states a change or a piece, a line headed by the entry shows the natural chain unless it says otherwise.
# UniProt A8B2U2: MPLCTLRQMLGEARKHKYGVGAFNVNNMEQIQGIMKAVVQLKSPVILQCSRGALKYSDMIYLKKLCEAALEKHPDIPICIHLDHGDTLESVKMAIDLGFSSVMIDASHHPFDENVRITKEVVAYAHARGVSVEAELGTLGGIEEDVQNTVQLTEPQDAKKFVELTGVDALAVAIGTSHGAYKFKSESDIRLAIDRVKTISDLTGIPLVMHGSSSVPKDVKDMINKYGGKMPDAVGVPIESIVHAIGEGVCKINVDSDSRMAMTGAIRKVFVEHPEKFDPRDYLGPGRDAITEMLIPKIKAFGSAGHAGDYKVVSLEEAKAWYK
# The entries are a selection whose mix differs from that of the whole data set. Records with an inconclusive call do not appear. Entries that show only a call come without a potency. The source made the active and inactive calls. Calls follow the shape of the dose curve; as a rule, active = well fitted inhibition curve with a large enough effect; inconclusive = small, poorly fitted or top-dose-only effect, or effect the other way; inactive = flat fitted curve, though single readings scatter.
# Biological target: Fructose-bisphosphate aldolase (Giardia intestinalis (strain ATCC 50803 / WB clone C6)) (UniProt A8B2U2)
# Test: qHTS Assay for Inhibitors of Fructose-1,6-bisphosphate Aldolase from Giardia Lamblia; also: nearly all actives have a fitted effect of over 55% in size
# Conditions: purified Giardia FBPA; series mostly up to 59.6 µM
# Potency is read from the fitted curve at half-maximal effect.
row,Compound,Potency
1,CC(=O)N1C2C3N(C(C)=O)C1C1N(C(C)=O)C(C(N1C(C)=O)N3C(C)=O)N2C(C)=O,inactive
2,Cc1ccc(NP(=O)(Oc2ccccc2)Oc2ccccc2)nc1,inactive
3,COc1ccc(C2=NCC(CBr)S2)cc1 (centres undefined),inactive
4,CN(C)C(=O)OCCc1n(C)cc[n+]1C,inactive
5,CC(C)=N/N=C(\N)N[N+](=O)[O-],inactive
6,CC(=O)C1=CCCC2CCC1N2 (centres undefined),inactive
7,Nc1ccc([As](=O)(O)c2ccc(N)cc2)cc1,inactive
8,CCN(/C(=N/P(=O)(N1CCOCC1)N1CCOCC1)N1CCOCC1)c1ccc(OC)cc1,inactive
9,O=C(Nc1cc([As](=O)(O)O)ccc1O)c1ccccc1,inactive
10,O=[N+]([O-])c1cccc(NC2=NCC(CBr)S2)c1 (centres undefined),inactive
11,O=C(O)CNc1ccc([As](=O)(O)O)cc1,inactive
12,CC(C)(C)C(=O)NC(Sc1ccncn1)C(Cl)(Cl)Cl (centres undefined),active: 3.15 µM
13,Cc1ccc(NP(=O)(Oc2ccccc2F)Oc2ccccc2F)nc1,inactive
14,CN(C(=O)Cc1ccc(Cl)c(Cl)c1)[C@H]1CCCC[C@@H]1N1CCCC1,inactive
15,CCOP(=O)(Nc1ccccc1)OCC,inactive
16,Cc1cc(SC(NC(=O)c2ccc(F)cc2)C(Cl)(Cl)Cl)ncn1 (centres undefined),active: 3.54 µM
17,O=C(O)c1ccccc1[As](=O)(O)O,inactive
18,CC(=O)Nc1ccc([As](=O)(O)O)cc1,inactive
19,O=P(Nc1nc2ccc(Cl)cc2s1)(c1ccccc1)c1ccccc1,inactive
20,CCN(N=Nc1nonc1N)c1nonc1N,inactive
21,Cc1ccc(OP(=O)(Nc2nccs2)Oc2ccc(C)cc2)cc1,inactive
22,COc1ccccc1OP(=O)(Nc1ccc(C)cn1)Oc1ccccc1OC,inactive
23,Clc1ccc(Cl)c(NC2=NCC(CBr)S2)c1 (centres undefined),inactive

row,Compound,Potency
1,CN1CCCC(OC(=O)C(c2ccccc2)c2ccccc2)C1 (centres undefined),inactive
2,NC(=O)c1cc([N+](=O)[O-])cc([N+](=O)[O-])c1N,inactive
3,Cc1ccc(N/C(=N/P(=O)(N2CCOCC2)N2CCOCC2)N2CCOCC2)cc1,inactive
4,CC(C)CC(=O)NC(Sc1ccc(Cl)cc1)C(Cl)(Cl)Cl (centres undefined),inactive
5,Nc1cc(N)c2nonc2c1[N+](=O)[O-],inactive
6,Cc1c2non([O-])c-2c(C)[n+](=O)[n+]1[O-],active: 3.54 µM
7,O=C(NC(Sc1ccncn1)C(Cl)(Cl)Cl)c1ccccc1 (centres undefined),active: 3.54 µM
8,Oc1ccccc1CNc1ccccn1,inactive
9,CC(C)(C)C(=O)NC(Sc1ccccc1)C(Cl)(Cl)Cl (centres undefined),inactive
10,CCOc1ccc(C2=NCC(CBr)S2)cc1 (centres undefined),inactive
11,O=P1(Nc2nc3ccc(Cl)cc3s2)COc2ccccc2O1 (centres undefined),inactive
12,CC(=O)Nc1ccc(Oc2c([N+](=O)[O-])cc([N+](=O)[O-])cc2[N+](=O)[O-])cc1,inactive
13,CC(=O)Nc1ccc([As](=O)(O)O)c(O)c1,inactive
14,CC(=O)c1ccc(N2CC2c2ccncc2)cc1 (centres undefined),inactive
15,C[C@@H]1C=CCP(=O)(Oc2ccccc2)O1 (some centres undefined),inactive
16,C[C@H]1OP(=O)(Oc2ccccc2)C[C@@H]2O[C@@H]21 (some centres undefined),inactive
17,CCNC(=S)/N=C(\N)N[N+](=O)[O-],inactive
18,O=C(NC1CCS(=O)(=O)C1)NP(=S)(Oc1ccccc1)Oc1ccccc1 (centres undefined),inactive
19,Cc1ccc(NP(=O)(Oc2cccc(C)c2)Oc2cccc(C)c2)nc1,inactive
20,CCOC(=O)NC(Sc1ccccc1)C(Cl)(Cl)Cl (centres undefined),inactive
21,c1ccc(-c2nn[nH]n2)c(-c2nn[nH]n2)c1,inactive
22,CN(C)C(=O)Oc1noc2ccccc12,inactive
23,O=c1c2cc([N+](=O)[O-])ccc2[nH]c2c([N+](=O)[O-])cc([N+](=O)[O-])cc12,inactive

row,Compound,Potency
1,Cc1ccccc1OP(=O)(Nc1ccccn1)Oc1ccccc1C,inactive
2,CC(=O)NC(SC(=S)N(CC(C)C)CC(C)C)C(Cl)(Cl)Cl (centres undefined),inactive
3,Cc1ccc(OP(=O)(Nc2ccccn2)Oc2ccc(C)cc2)cc1,inactive
4,COC(=O)c1cc2c(s1)N=C(c1ccccc1)N(C)P2(=O)N1CCOCC1 (centres undefined),inactive
5,CCC(=O)N1C2C3N(C(=O)CC)C1C1N(C(=O)CC)C(C(N1C(=O)CC)N3C(=O)CC)N2C(=O)CC,inactive
6,CN(C(=O)Cc1ccc(Cl)c(Cl)c1)[C@@H]1CCCC[C@@H]1N1CCCC1,inactive
7,O=C(OC1CN2CCC1CC2)c1ccccc1 (centres undefined),inactive
8,C[C@H]1OP(=O)(Oc2ccccc2)[C@H](O)[C@H](O)[C@H]1N=[N+]=[N-] (some centres undefined),inactive
9,O=P(Nc1nc2ccccc2s1)(c1ccccc1)c1ccccc1,inactive
10,O=P(Nc1ccccn1)(c1ccc(Br)cc1)c1ccc(Br)cc1,inactive
11,CN(C)C1(CNC(=O)c2ccc(Cl)c(S(N)(=O)=O)c2)CCCCC1,inactive
12,Nc1ccc([As](=O)(O)c2ccc([N+](=O)[O-])cc2)cc1,inactive
13,O=C(OC1CN2CCC1CC2)c1cccc(Cl)c1 (centres undefined),inactive
14,O=[N+]([O-])c1ccc(O)c(/C=N/Nc2ccc([N+](=O)[O-])cc2[N+](=O)[O-])c1,inactive
15,CC(=O)NC(SC(=S)N(C)C)C(Cl)(Cl)Cl (centres undefined),inactive
16,O=[N+]([O-])c1ncn(CCn2cnc([N+](=O)[O-])n2)n1,inactive
17,O=[As](O)(c1ccccc1)c1ccc(O)cc1,inactive
18,c1nnnn1CCn1cnnn1,inactive
19,CCC(C)(OOC(C)(C)C)OOC(C)(C)C,inactive
20,CC(C)C(=O)NC(Sc1ccccc1)C(Cl)(Cl)Cl (centres undefined),inactive
21,O=P(Nc1nccs1)(c1ccccc1)c1ccccc1,inactive
22,CC(C)(C)C(=O)NC(Sc1ncccn1)C(Cl)(Cl)Cl (centres undefined),active: 6.29 µM
23,Clc1n[nH]nc1-c1nn[nH][15n]1,inactive

row,Compound,Potency
1,CN(CCCl)Cc1cc(Cl)c(NC2=NCCN2)c(Cl)c1,inactive
2,CCOP(=O)(Nc1ccc(C)cn1)OCC,inactive
3,O=P1(Nc2ccccn2)COc2ccccc2OC1,inactive
4,CCC1=CC2Cc3nc4ccc(Cl)cc4c(N)c3C(C1)C2 (centres undefined),inactive
5,O=[As](O)(c1ccccc1Br)c1ccccc1Br,inactive
6,CC(C)/C=N\N=C(\N)N[N+](=O)[O-],inactive
7,CN(C(=O)Cc1ccc(Cl)c(Cl)c1)[C@@H]1CCCC[C@H]1N1CCCC1,inactive
8,O=C(/C=C/c1ccccc1)OC1CN2CCC1CC2 (centres undefined),inactive
9,CN(C)C1(CNC(=O)c2ccc(S(C)(=O)=O)cc2)CCCCC1,inactive
10,CC1CCC(C(C)C)C(OP(=O)(Nc2ccccn2)c2ccccc2)C1 (centres undefined),inactive
11,Cc1ccc(C(=O)OC2CN3CCC2CC3)cc1 (centres undefined),inactive
12,Cc1nn(-c2ccccc2)c2c1P(=O)(N1CCOCC1)N(C)C(c1ccccc1)=N2 (centres undefined),inactive
13,O=P1(Nc2ccc(Br)cn2)COc2ccccc2OC1,inactive
14,Cc1ccc(OCC(=O)OC2CN3CCC2CC3)cc1 (centres undefined),inactive
15,O=[As](O)(c1cccs1)c1cccs1,inactive
16,Nc1cccc([As](=O)(O)c2ccccc2)c1,inactive
17,O=P1(Nc2ncccn2)COc2ccccc2OC1,inactive
18,Nc1ccccc1[As](=O)(O)c1ccccc1,inactive
19,O=C(O)COc1ccc([As](=O)(O)O)cc1[N+](=O)[O-],inactive
20,CS(=O)(=O)c1cc([N+](=O)[O-])c2no[n+]([O-])c2c1,active: 11.2 µM
21,O=P(Nc1nccs1)(c1ccccc1)c1nc2ccccc2s1 (centres undefined),active: 2.81 µM
22,O=P(Nc1nccs1)(Oc1ccccc1)Oc1ccccc1,inactive
23,CCOP1(=S)c2c(C)nn(CCC#N)c2N=C(c2ccccc2F)N1C (centres undefined),inactive

row,Compound,Potency
1,O=[N+]([O-])c1ccc2c(c1)nnn2O,inactive
2,CCOP1(=S)c2c(C)nn(CCC#N)c2N=C(c2ccc(F)cc2)N1C (centres undefined),inactive
3,CN(C(=O)Cc1ccccc1)[C@@H]1CC[C@]2(CCCO2)C[C@H]1N1CCCC1,inactive
4,O=[N+]([O-])CC(O)c1ccc([N+](=O)[O-])cc1 (centres undefined),inactive
5,O=[As](O)(c1cccc(O)c1)c1cccc(O)c1,inactive
6,Cc1cccc(OCC(=O)OC2CN3CCC2CC3)c1 (centres undefined),inactive
7,COc1cc(C(=O)NCC2(N3CCOCC3)CCCCC2)cc(Cl)c1OC(C)C,inactive
8,O=[As](O)(O)c1cccnc1,inactive
9,CN(C(=O)Cc1ccc(Cl)c(Cl)c1)[C@@H]1CC[C@]2(CCCO2)C[C@H]1N1CCCC1,inactive
10,O=C(OC1CN2CCC1CC2)c1ccc(Cl)cc1 (centres undefined),inactive
11,CCOP(=O)(Nc1cccc2ccccc12)OCC,inactive
12,COc1cc(C2NCCC3(OCCO3)C2(C)C)cc(OC)c1OC (centres undefined),inactive
13,CCCOP(=S)(Nc1nc(N)cc(=O)[nH]1)OCCC,active: 3.16 µM
14,Cc1ccc(NCCc2c([N+](=O)[O-])cc([N+](=O)[O-])cc2[N+](=O)[O-])cc1,inactive
15,COc1cc(I)ccc1[As](=O)(O)O,inactive
16,COc1ccc2nc(NP(=O)(c3ccccc3)c3ccccc3)sc2c1,inactive
17,Cc1cc(=O)[nH]c(N[N+](=O)[O-])n1,inactive
18,O=C(OC1CN2CCC1CC2)C12CC3CC(CC(C3)C1)C2 (centres undefined),inactive
19,Cc1c2c(nc3ccccc13)SC(C(Cl)Cl)C2 (centres undefined),inactive
20,COc1ccc(N/C(=N/P(=O)(N2CCOCC2)N2CCOCC2)N2CCOCC2)cc1,inactive
21,Cc1ccc2nc3c(c(C)c2c1)CC(C(Cl)Cl)S3 (centres undefined),inactive
22,Cc1ccc(OP(=O)(Nc2ccc([N+](=O)[O-])cn2)Oc2ccc(C)cc2)cc1,inactive
23,C[As](=O)(O)c1cccc(C(=O)O)c1,inactive

row,Compound,Potency
1,O=[As](O)(c1ccc(O)cc1)c1ccccc1O,inactive
2,O=[N+]([O-])c1cc([N+](=O)[O-])c(-c2ccn[nH]2)s1,inactive
3,CCN(CC)C(=S)SC(NC=O)C(Cl)(Cl)Cl (centres undefined),inactive
4,CC(C)NC(=O)NP(=O)(Oc1ccccc1)Oc1ccccc1,inactive
5,CC(C)c1ccc(OP(=O)(Nc2ccccn2)Oc2ccccc2F)cc1 (centres undefined),inactive
6,ClCCSc1nnc(-c2cccnc2)o1,inactive
7,Cc1cc(SC(NC(=O)c2ccccc2)C(Cl)(Cl)Cl)nc(C(C)C)n1 (centres undefined),inactive
8,CCCCOc1ccc(C(=O)NCC2(N3CCCCC3)CCCCC2)cc1OC,inactive
9,CCOC(=O)Nc1ccc([As](=O)(O)O)c(O)c1,inactive
10,O=[N+]([O-])c1ccc(Nc2ccc(Oc3ccc([N+](=O)[O-])cc3[N+](=O)[O-])cc2)c([N+](=O)[O-])c1,inactive
11,O=P(Nc1ccccn1)(c1cccc2ccccc12)c1cccc2ccccc12,inactive
12,Cc1cc(SC(NC=O)C(Cl)(Cl)Cl)ncn1 (centres undefined),active: 1.77 µM
13,CCOC(=O)Nc1cccc([As](=O)(O)O)c1,inactive
14,O=C(Nc1ccncc1[N+](=O)[O-])c1ccc([N+](=O)[O-])cc1[N+](=O)[O-],inactive
15,O=C(COc1ccccc1)OC1CN2CCC1CC2 (centres undefined),inactive
16,COP1(=S)c2c(C)nn(CCC#N)c2N=C(c2ccc(F)cc2)N1C (centres undefined),inactive
17,CCC(C)N(CC(C)C)C(=S)SC(NC(C)=O)C(Cl)(Cl)Cl (centres undefined),inactive
18,CCOC(=O)c1ccc(NC(=O)C(C)(CCl)SC)cc1 (centres undefined),inactive
19,O=C(OC1CN2CCC1CC2)c1cccc([N+](=O)[O-])c1 (centres undefined),inactive
